Laboratory results: publication PMC9293779, “Elucidation of binding preferences of YEATS domains to site-specific acetylated nucleosome core particles” (The Journal of Biological Chemistry, 2022)

Target: Unmodified H3 (15–39) (Homo sapiens)
Assay: ITC
Conditions: domain or fragment; modification not given

Kd | Binder
> 1000 µM | AG-fused YEATS2-YEATS domain, Q9ULM3 200-349 (protein) ETSRLFVKKTIVVGNVSKYIPPDKREENDQSTHKWMVYVRGSRREPSINHFVKKVWFFLHPSYKPNDLVEVREPPFHLTRRGWGEFPVRVQVHFKDSQNKRIDIIHNLKLDRTYTGLQTLGAETVVDVELHRHSLGEDCIYPQSSESDIS
> 1000 µM | YEATS2-YEATS domain (residues 200–349) for ITC, Q9ULM3 200-349 (protein) ETSRLFVKKTIVVGNVSKYIPPDKREENDQSTHKWMVYVRGSRREPSINHFVKKVWFFLHPSYKPNDLVEVREPPFHLTRRGWGEFPVRVQVHFKDSQNKRIDIIHNLKLDRTYTGLQTLGAETVVDVELHRHSLGEDCIYPQSSESDIS
